Measured values: article PMC8480965 (The Journal of General Physiology, 2021)

Assays:
Kv2 voltage sensors = details: Table 1 input parameter; ref Tilley et al., 2019; cited from earlier work
[1] = system: endogenous Kv2 proteins of CA1 pyramidal neurons; set-up: species or system rat; details: for kΔF of individual puncta, 0-mV step / kΔF of ROI 1, 0-mV step: 30°C
[2] = system: Kv2.1-GFP in CA1 hippocampal pyramidal neurons; test: Two-photon imaging of GxTX-594 in hippocampal slices transfected with Kv2.1-GFP; type: binding, rat; details: 100 nM
Summary of the method: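 Rat organotypic hippocampal slices were labeled with 100 nM test compound. CA1 pyramidal neurons were imaged by two-photon excitation 2, 4 or 6 d after Kv2.1-GFP transfection. Slices were held under a gold-wire weight in a chamber with recirculating ACSF at 30°C.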

Kv2.1 (Kv2.1-CHO cells) [3] = molecular target: T1, Kv2.1 (Kv2.1-CHO cells) (Rattus norvegicus, UniProt P15387); test: GxTX-594 concentration-effect imaging; type: binding
T1 sequence (P15387 1-857): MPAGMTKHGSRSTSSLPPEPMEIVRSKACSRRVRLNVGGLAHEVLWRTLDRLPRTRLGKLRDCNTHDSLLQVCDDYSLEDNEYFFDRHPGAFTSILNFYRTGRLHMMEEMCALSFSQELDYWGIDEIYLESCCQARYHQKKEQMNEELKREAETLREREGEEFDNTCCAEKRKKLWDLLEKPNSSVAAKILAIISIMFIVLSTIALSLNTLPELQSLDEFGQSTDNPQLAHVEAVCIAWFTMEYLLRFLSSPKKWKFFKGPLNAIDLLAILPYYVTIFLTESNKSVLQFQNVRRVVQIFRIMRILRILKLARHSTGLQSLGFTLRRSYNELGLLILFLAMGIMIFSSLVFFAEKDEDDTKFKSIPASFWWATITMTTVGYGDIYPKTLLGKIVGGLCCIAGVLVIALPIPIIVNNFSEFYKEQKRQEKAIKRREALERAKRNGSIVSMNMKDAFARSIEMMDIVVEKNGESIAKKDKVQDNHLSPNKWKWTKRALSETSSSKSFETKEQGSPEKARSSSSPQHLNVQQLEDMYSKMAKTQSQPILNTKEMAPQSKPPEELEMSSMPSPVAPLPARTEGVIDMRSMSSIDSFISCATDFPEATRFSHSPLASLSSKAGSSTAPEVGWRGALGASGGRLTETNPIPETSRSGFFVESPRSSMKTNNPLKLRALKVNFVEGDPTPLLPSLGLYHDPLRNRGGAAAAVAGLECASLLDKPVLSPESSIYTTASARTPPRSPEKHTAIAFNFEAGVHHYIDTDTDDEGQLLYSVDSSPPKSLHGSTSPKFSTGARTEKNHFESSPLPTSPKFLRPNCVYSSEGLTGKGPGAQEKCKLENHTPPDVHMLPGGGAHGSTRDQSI
Summary of the method: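 Kv2.1-CHO cells were induced with 1 μg/ml minocycline for 48 h and imaged in CE buffer with 10 mM glucose and 1% BSA. Three 10-fold serial dilutions of 1,000 nM were perfused (~1 ml per 10 s), each for 15 min with 15 min washout between. Images were taken every 5 s near the glass-adhered surface and not background subtracted. Intensity was normalized to Fmax at 1,000 nM. Post-washout fluorescence was fitted with a Langmuir isotherm; three experiments.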

Kv2.1 = molecular target: T2, Kv2.1 (Rattus norvegicus, UniProt P15387); test: GxTX-594 fluorescence equilibration after dilution from 100 nM to 9 nM; type: binding; details: 9 min after dilution from 100 nM to 9 nM, on average
T2 sequence (P15387 1-857): T1 sequence (P15387 1-857)

Kv1.5-GFP = test: GxTX-594 labeling and colocalization imaging, Kv1.5-GFP; type: binding, rat
BK-GFP = test: GxTX-594 labeling and colocalization imaging, BK-GFP; type: binding, mouse; details: 100 nM
Kv4.2-GFP = test: GxTX-594 labeling and colocalization imaging, Kv4.2-GFP; type: binding, rat
Kv2.1-GFP = test: GxTX-594 labeling and colocalization imaging, Kv2.1-GFP; type: binding, rat
Kv2.1 (Kv2.1-CHO cells) [4] = molecular target: T1, Kv2.1 (Kv2.1-CHO cells); test: Voltage clamp fluorometry of GxTX-594 on Kv2.1-CHO cells; type: cell-based; details: 9 nM GxTX-594

Structure (SMILES): CCCC[C@H](NC(=O)[C@@H]1CCCN1C(=O)[C@H](Cc1ccccc1)NC(=O)[C@H](CC(N)=O)NC(=O)[C@@H]1CSSC[C@@H]2NC(=O)[C@H](C)NC(=O)[C@@H]3CCCN3C(=O)[C@H](CCCCN)NC(=O)CNC(=O)[C@H](CSC3CC(=O)N(CCCCCNC(=O)c4ccc(C5=c6cc7c(cc6Oc6cc8c(cc65)C(CS(=O)(=O)O)=CC(C)(C)N8C)=[N+](C)C(C)(C)C=C7CS(=O)(=O)[O-])c(C(=O)O)c4)C3=O)NC(=O)CNC(=O)[C@@H]3CSSC[C@H](NC(=O)[C@H](C(C)C)NC(=O)[C@H](Cc4ccc(O)cc4)NC(=O)[C@H](CCCCN)NC(=O)[C@@H]4CCCN4C(=O)[C@H](CSSC[C@H](NC(=O)[C@H](CCC(=O)O)NC(=O)CNC(=O)[C@@H](N)CCC(=O)O)C(=O)NCC(=O)NCC(=O)N[C@@H](Cc4ccccc4)C(=O)N[C@@H](Cc4c[nH]c5ccccc45)C(=O)N[C@@H](Cc4c[nH]c5ccccc45)C(=O)N[C@@H](CCCCN)C(=O)N3)NC2=O)C(=O)N[C@@H](CO)C(=O)N2CCC[C@H]2C(=O)N[C@@H](CCCCN)C(=O)N[C@@H](Cc2c[nH]c3ccccc23)C(=O)NCC(=O)N[C@@H](CC(C)C)C(=O)N1)C(=O)N1CCC[C@H]1C(=O)O (stereo partly shown) [GxTX-594, Ser13Cys (Alexa Fluor 594) GxTX-1E]
- V1/2,labeled (Kv2 voltage sensors): 41 mV
- kΔF of individual puncta, 0-mV step ([1]; 100 nM, puncta 4 (red)): 0.067 ± 0.025 s⁻¹
- kΔF of individual puncta, 0-mV step ([1]; 100 nM, puncta 5 (dark red)): 0.12 ± 0.056 s⁻¹
- kΔF of ROI 1, 0-mV step ([1]; 100 nM, slice 1 (yellow)): 0.068 ± 0.026 s⁻¹
- kΔF of ROI 1, 0-mV step ([1]; 100 nM, slice 2 (red)): 0.068 ± 0.046 s⁻¹
- fluorescence change in ROI 1 compared with ROI 2 and ROI 3, step to 0 mV ([1]; 100 nM, three slices, ANOVA P < 0.001, Tukey's P < 0.001): significant decrease in fluorescence in ROI 1
- response of puncta to depolarization to 0 mV ([1]; 100 nM, −70 to 0 mV): loss of fluorescence from a subset of puncta
- voltage sensitivity of Kv2 protein at discrete individual clusters ([1]; CA1 neurons): majority of Kv2 protein detected at discrete individual clusters was voltage sensitive
- colocalization with Kv2.1-GFP in neurons after washout ([2]; 5 min, two-photon): GxTX-594 fluorescence remained colocalized with Kv2.1-GFP
- intensity of labeling of neighboring neurons not expressing Kv2.1-GFP ([2]; 5 min, two-photon): roughly an order of magnitude dimmer
- non-Kv2 labeling in slices ([2]; most prevalent at slice surface): occasionally labels structures not consistent with Kv2 proteins
- koff (Kv2.1 (Kv2.1-CHO cells) [3]): 0.000593 s⁻¹
- kon (Kv2.1 (Kv2.1-CHO cells) [3]): 63700 M⁻¹ s⁻¹
- average kΔF (Kv2.1 (Kv2.1-CHO cells) [3]; 10 nM GxTX-594, concentration–effect experiments, unclamped cells): 0.0011 s⁻¹
- labeling of glass-adhered surface (Kv2.1 (Kv2.1-CHO cells) [3]; 100 nM, 5 min): near-maximal labeling
- equilibration completed after dilution (Kv2.1): 85%
- ratio of GxTX-594 fluorescence to GFP (Kv1.5-GFP; Kv1.5-GFP + Kvβ2, 100 nM, rinsed, n = 13 cells): not distinguishable from zero
- labeling without auxiliary subunits (Fig. S2) (Kv1.5-GFP; Kv1.5-GFP without Kvβ2, confocal, 100 nM): no indication of GxTX-594 labeling
- colocalization with GFP-tagged channel (Kv1.5-GFP; Kv1.5-GFP, Pearson correlation, 100 nM): no colocalization was apparent
- ratio of GxTX-594 fluorescence to GFP (BK-GFP; rinsed, n = 10 cells): not distinguishable from zero
- colocalization with GFP-tagged channel (BK-GFP; Pearson correlation): no colocalization was apparent
- labeling (Fig. S2) (BK-GFP; confocal): no indication of GxTX-594 labeling
- ratio of GxTX-594 fluorescence to GFP (Kv4.2-GFP; Kv4.2-GFP + KChIP2, 100 nM, rinsed, n = 13 cells): not distinguishable from zero
- labeling without auxiliary subunits (Fig. S2) (Kv4.2-GFP; Kv4.2-GFP without KChIP2, confocal, 100 nM): no indication of GxTX-594 labeling
- colocalization with GFP-tagged channel (Kv4.2-GFP; Kv4.2-GFP, Pearson correlation, 100 nM): no colocalization was apparent
- Pearson correlation coefficients for Kv2.1 or Kv2.2 vs Kv1.5, Kv4.2, or BK (Kv2.1-GFP; 100 nM (Fig. 4 C), Mann–Whitney P < 0.0001): Significant differences were observed
- 594:488 ratio for Kv2.1 or Kv2.2 vs Kv1.5, Kv4.2, or BK (Kv2.1-GFP; 100 nM, with β subunits (Fig. 4 B), Mann–Whitney P < 0.0001): Significant differences were observed
- GxTX:GFP ratio for Kv2.1 or Kv2.2 vs Kv1.5, Kv4.2, or BK (Kv2.1-GFP; 100 nM, without β subunits (Fig. S2 C), Mann–Whitney P < 0.0001): Significant differences were observed
- ratio of GxTX-594 to GFP fluorescence, Kv2.1-GFP vs Kv2.2-GFP (Kv2.1-GFP; 100 nM, Mann–Whitney U test P = 0.74): did not detect a significant difference; also recorded: No significant difference was detected
- subcellular colocalization with Kv2.1-GFP (Kv2.1-GFP; CHO cells, 100 nM, 5 min, Pearson correlation): high degree of subcellular colocalization
- residual fluorescence at +80 mV (Kv2.1 (Kv2.1-CHO cells) [4]): some GxTX-594 fluorescence remained

“Also recorded” adds a separate entry of the source. Like-named read-outs stand apart in the source and are kept apart here.
